Assay results as given in BindingDB's records for doi:10.1021/jm950641i (1996).

Target: Dimer of Gag-Pol polyprotein [489-587] (Human immunodeficiency virus 1, UniProt P12497)
Experiment: ASSAY_NAME: Protease Inhibition Assay DESCRIPTION: Enzymatic activity was measured by following cleavage of the substrate H-Lys-Ala-Arg-Val-Leu-pNph-Glu-Ala-Nle-NH2. Products of the cleavage reaction were quantified by HPLC detection.

SMILES	Ki
CC(C)C1NC(=O)[C@@H](C(O)[C@H](Cc2ccccc2)NC(=O)OC(C)(C)C)NCc2cccc(c2)OCCCCNC1=O (stereo partly drawn) [tert-butyl N-[(1S,2S)-1-[(9R,12R)-8,11-dioxo-9-(propan-2-yl)-2-oxa-7,10,13-triazabicyclo[13.3.1]nonadeca-1(18),15(19),16-trien-12-yl]-1-hydroxy-3-phenylpropan-2-yl]carbamate]	16.1 nM
CC(C)C1NC(=O)[C@@H](C(O)[C@H](Cc2ccccc2)NC(=O)OC(C)(C)C)NCc2ccc(cc2)OCCOCCOCCNC1=O (stereo partly drawn) [tert-butyl N-[(1S,2S)-1-[(13R,16R)-12,15-dioxo-13-(propan-2-yl)-2,5,8-trioxa-11,14,17-triazabicyclo[17.2.2]tricosa-1(21),19,22-trien-16-yl]-1-hydroxy-3-phenylpropan-2-yl]carbamate]	12.6 nM
